Organism: Homo sapiens
Assay: Selectivity index, ratio of IC50 for recombinant human MAO-A expressed in baculovirus infected High 5 insect cells to IC50 for recombinant human MAO-B expressed in baculovirus infected High 5 insect cells
How it was run: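 Recombinant human MAO-A or MAO-B (7.5 µg/mL) with kynuramine substrate in 100 mM potassium phosphate pH 7.4 (KCl-isotonic), <4% DMSO, 30 min at 37 °C. Stopped with 2 N NaOH. Single-point inhibition at 10 µM. IC50 from six-concentration sigmoidal curves, triplicate. SI = IC50(MAO-A)/IC50(MAO-B).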

CCN(CC)C(=O)Oc1ccc(C(=O)/C=C/c2ccc(N(C)C)cc2)c(O)c1
Ratio IC50: > 0.87

CN(C)c1ccc(/C=C/C(=O)c2ccc(OC(=O)N3CCCC3)cc2O)cc1
Ratio IC50: > 35

O=C(/C=C/c1ccc(N2CCCCC2)cc1)c1ccc(OC(=O)N2CCCC2)cc1O
Ratio IC50: > 12.8

CCN(CC)c1ccc(/C=C/C(=O)c2ccc(OC(=O)N3CCCC3)cc2O)cc1
Ratio IC50: > 0.59

O=C(/C=C/c1ccc(N2CCCC2)cc1)c1ccc(OC(=O)N2CCCC2)cc1O
Ratio IC50: > 14.1
